Results: publication PMC10810714, “Antiretroviral Drug Exposure and Response in Obese and Morbidly Obese People With Human Immunodeficiency Virus (HIV): A Study Combining Modelling and Swiss HIV Cohort Data” (Clinical Infectious Diseases: An Official Publication of …, 2023)

How the values were obtained:
[1] = Observed pharmacokinetics of antiretrovirals in nonobese and obese individuals (SHCS therapeutic drug monitoring data and literature studies, noncompartmental analysis); conditions: observed data
Source text: We took several steps to analyse the impact of obesity on the ARVs exposure and response. First, we implemented our in-house PBPK model with our recently published virtual White obese population to simulate the pharmacokinetics of ARVs in nonobese and obese individuals. Next, we verified the simulations against the TDM data collected during the follow-up visits of the SHCS (multiple drug levels per individual were allowed [more information on the SHCS in the homonymous section in the Supplementary Material]). We then applied the verified model to extrapolate the pharmacokinetics across different obesity classes. Finally, the clinical relevance of obesity-related changes on drug response was evaluated by analyzing HIV viral load and the corresponding TDM values in obese and nonobese individuals in the SHCS. […]
The Swiss HIV Cohort Study (SHCS) is an ongoing, nationwide, multicenter, clinic-based prospective cohort study in Switzerland with continuous enrollment and follow-up (twice a year) of people with HIV (PWH). Socio-demographic, clinical and laboratory data are recorded in detail. […] All available TDM data for each evaluated antiretroviral drug were extracted from the SHCS database representing 6210 and 575 data points for the verification of the simulations in non-obese and obese individuals, respectively.

[2] = PBPK model virtual trials matched to the observed studies (model verification, nonobese vs obese); set-up: species or system human; conditions: obese individuals
Source text: We took several steps to analyse the impact of obesity on the ARVs exposure and response. First, we implemented our in-house PBPK model with our recently published virtual White obese population to simulate the pharmacokinetics of ARVs in nonobese and obese individuals. Next, we verified the simulations against the TDM data collected during the follow-up visits of the SHCS (multiple drug levels per individual were allowed [more information on the SHCS in the homonymous section in the Supplementary Material]). We then applied the verified model to extrapolate the pharmacokinetics across different obesity classes. Finally, the clinical relevance of obesity-related changes on drug response was evaluated by analyzing HIV viral load and the corresponding TDM values in obese and nonobese individuals in the SHCS.
All ARV drug models, except for doravirine (Supplementary Table 1), were previously developed and verified to predict the pharmacokinetics in healthy and elderly PWH [6, 12]. […] The TDM data were excluded if the participant’s age was younger than 20 or older than 50 years to avoid the age-related confounding effect on the pharmacokinetics, if a nonstandard ARV dosage was used, and if concurrent medications with inhibitory or inducing effects were used. […]

[3] = standard oral dose at steady state, GM (mean for etravirine, emtricitabine, tenofovir), literature studies only, ref Supplementary Table 2 [9-16, 21-24]; cited from earlier work

## C[C@@H]1CCO[C@H]2Cn3cc(C(=O)NCc4ccc(F)cc4F)c(=O)c(O)c3C(=O)N12 [Dolutegravir, dolutegravir]
[1]
  Cτ, Ratio Obese/Nonobese, Observed: 1.06

## O=C1Nc2ccc(Cl)cc2[C@@](C#CC2CC2)(C(F)(F)F)O1 [Efavirenz, efavirenz]
[2]
  Cmax, Ratio Predicted/Observed, Obese: 1.14

## Cc1cc(C#N)cc(C)c1Oc1nc(Nc2ccc(C#N)cc2)nc(N)c1Br [Etravirine, etravirine]
[3]
  t1/2, observed, nonobese individuals: 12.8 h
